biological target: human μ-opiate receptor (Homo sapiens, UniProt P35372); experiment: Measurement of the μ binding ([3H]-naloxone displacement, CHO-K1 membrane preparation); details: test substance 1 μM; inhibition of specific binding of 1 nmol/l [3H]-naloxone

Sequences of proteins named here, by UniProt entry; tags and fusion partners are left off.
UniProt P35372, whole entry, looked up: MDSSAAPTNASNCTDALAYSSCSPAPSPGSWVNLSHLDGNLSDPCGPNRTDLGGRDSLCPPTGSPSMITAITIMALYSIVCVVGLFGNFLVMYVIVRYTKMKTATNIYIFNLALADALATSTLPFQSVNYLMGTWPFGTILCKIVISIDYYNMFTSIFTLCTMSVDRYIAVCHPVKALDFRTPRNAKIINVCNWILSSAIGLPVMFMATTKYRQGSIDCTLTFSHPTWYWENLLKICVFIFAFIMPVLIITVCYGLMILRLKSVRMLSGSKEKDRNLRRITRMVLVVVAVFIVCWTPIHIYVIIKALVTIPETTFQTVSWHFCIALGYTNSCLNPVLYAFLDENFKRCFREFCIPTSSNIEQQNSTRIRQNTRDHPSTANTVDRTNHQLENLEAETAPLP

Structure (SMILES)	μ-Opiate receptor [1 μM], % inhibition [%]
CC(Oc1ccccc1)C(=O)NC1CCC(CCc2ccccc2)(N(C)C)CC1 (centres unmarked)	54
CCC(Oc1ccccc1)C(=O)NC1CCC(c2ccccc2)(N2CCCCC2)CC1 (centres unmarked)	57
CC(=O)OCC(=O)NC1CCC(CCc2ccccc2)(N(C)C)CC1 (centres unmarked)	68
Cc1cccc(CC2(N(C)C)CCC(NC(=O)COc3cccc(Cl)c3)CC2)c1 (centres unmarked)	80
Cc1ccccc1CC1(N(C)C)CCC(NC(=O)C(C)Oc2ccccc2)CC1 (centres unmarked)	79
CN(C)C1(Cc2ccccc2)CCC(NC(=O)COc2ccc(Cl)cc2)CC1 (centres unmarked)	71
COc1ccc(Oc2ccc([N+](=O)[O-])cc2C(=O)NC2CCC(Cc3ccccc3F)(N(C)C)CC2)cc1 (centres unmarked)	96
CC(=O)OC(C)(C)C(=O)NC1CCC(Cc2cccc(F)c2)(N(C)C)CC1 (centres unmarked)	41
CN(C)C1(CCc2ccccc2)CCC(NC(=O)CCCOc2ccccc2)CC1 (centres unmarked)	58
CN(C)C1(Cc2cccc(Cl)c2)CCC(NC(=O)COc2ccc(Cl)cc2)CC1 (centres unmarked)	51
CN(C)C1(Cc2cccc(F)c2)CCC(NC(=O)COc2ccc(Cl)cc2)CC1 (centres unmarked)	69
CC(=O)OC(C(=O)NC1CCC(Cc2ccccc2)(N2CCCCC2)CC1)c1ccccc1 (centres unmarked)	74
CCOCC(=O)NC1CCC(Cc2ccccc2F)(N(C)C)CC1 (centres unmarked)	54
CC(Oc1ccccc1)C(=O)NC1CCC(Cc2ccccc2)(N(C)C)CC1 (centres unmarked)	61
Cc1ccc(CC2(N(C)C)CCC(NC(=O)COCc3ccccc3)CC2)cc1 (centres unmarked)	71
CCC(Oc1ccccc1)C(=O)NC1CCC(Cc2cccc(F)c2)(N(C)C)CC1 (centres unmarked)	57
Cc1ccccc1CC1(N(C)C)CCC(NC(=O)C(C)(C)Oc2ccc(C(N)=O)cc2)CC1 (centres unmarked)	67
CN(C)C1(Cc2ccccc2Cl)CCC(NC(=O)c2ccccc2Oc2ccccc2)CC1 (centres unmarked)	82
Cc1cccc(CC2(N(C)C)CCC(NC(=O)c3ccccc3Nc3ccccc3)CC2)c1 (centres unmarked)	73
O=C(CCc1ccccc1OC(=O)c1ccccc1)NC1CCC(Cc2ccccc2)(N2CCCCC2)CC1 (centres unmarked)	46
Cc1cccc(CC2(N(C)C)CCC(NC(=O)COc3ccccc3)CC2)c1 (centres unmarked)	93
CCC(Oc1ccccc1)C(=O)NC1CCC(Cc2ccc(F)cc2)(N(C)C)CC1 (centres unmarked)	55

Structure (SMILES)	μ-Opiate receptor [1 μM], % inhibition [%]
O=C(OCc1ccccc1C(=O)NC1CCC(Cc2ccccc2)(N2CCCCCC2)CC1)c1ccccc1 (centres unmarked)	51
CC(Oc1ccccc1)C(=O)NC1CCC(Cc2ccccc2Cl)(N(C)C)CC1 (centres unmarked)	82
O=C(COc1ccccc1)NC1CCC(Cc2ccccc2)(N2CCCCC2)CC1 (centres unmarked)	44
Cc1ccc(CC2(N(C)C)CCC(NC(=O)CCCOc3ccc(Cl)cc3C)CC2)cc1 (centres unmarked)	55
CC(=O)OC(C)C(=O)NC1CCC(Cc2ccccc2C)(N(C)C)CC1 (centres unmarked)	63
Cc1cccc(CC2(N(C)C)CCC(NC(=O)c3cccnc3Oc3ccccc3)CC2)c1 (centres unmarked)	45
Cc1ccccc1CC1(N(C)C)CCC(NC(=O)CCCOc2ccccc2)CC1 (centres unmarked)	77
CC(Oc1ccccc1)C(=O)NC1CCC(Cc2ccccc2F)(N(C)C)CC1 (centres unmarked)	73
CN(C)C1(CCc2ccccc2)CCC(NC(=O)CCc2ccccc2OC(=O)c2ccccc2)CC1 (centres unmarked)	67
CC(Oc1ccccc1)C(=O)NC1CCC(Cc2ccc(Cl)cc2)(N(C)C)CC1 (centres unmarked)	56
COc1ccc(Oc2ccc([N+](=O)[O-])cc2C(=O)NC2CCC(Cc3cccc(C)c3)(N(C)C)CC2)cc1 (centres unmarked)	86
CC(Oc1ccccc1)C(=O)NC1CCC(Cc2ccccc2)(N2CCCC2)CC1 (centres unmarked)	44
CN(C)C1(CCc2ccccc2)CCC(NC(=O)c2ccccc2COC(=O)c2ccccc2)CC1 (centres unmarked)	96
CSCC(=O)NC1CCC(Cc2ccccc2F)(N(C)C)CC1 (centres unmarked)	56
CN(C)C1(Cc2cccc(Cl)c2)CCC(NC(=O)COc2ccccc2)CC1 (centres unmarked)	69
Cc1cccc(CC2(N(C)C)CCC(NC(=O)COc3ccc(Cl)cc3)CC2)c1 (centres unmarked)	64
CN(C)C1(Cc2ccccc2F)CCC(NC(=O)CSc2ccc(C(F)(F)F)cn2)CC1 (centres unmarked)	61
CN(C)C1(Cc2cccc(F)c2)CCC(NC(=O)COc2ccccc2)CC1 (centres unmarked)	84
CN(C)C1(CCc2ccccc2)CCC(NC(=O)COc2cccc(Cl)c2)CC1 (centres unmarked)	84
CN(C)C1(Cc2ccc(Cl)cc2)CCC(NC(=O)c2ccccc2COC(=O)c2ccccc2)CC1 (centres unmarked)	92
CN(C)C1(Cc2ccc(Cl)cc2)CCC(NC(=O)CCCOc2ccccc2)CC1 (centres unmarked)	47
O=C(OCc1ccccc1C(=O)NC1CCC(Cc2ccccc2)(N2CCCCC2)CC1)c1ccccc1 (centres unmarked)	76

Structure (SMILES)	μ-Opiate receptor [1 μM], % inhibition [%]
CN(C)C1(Cc2ccccc2F)CCC(NC(=O)C(C)(C)Oc2ccc(CCNC(=O)c3ccc(Cl)cc3)cc2)CC1 (centres unmarked)	48
CC(=O)OC(C(=O)NC1CCC(Cc2ccc(Cl)cc2)(N(C)C)CC1)c1ccccc1 (centres unmarked)	43
O=C(CSc1ccc(C(F)(F)F)cn1)NC1CCC(c2ccccc2)(N2CCCCC2)CC1 (centres unmarked)	63
CN(C)C1(Cc2cccc(F)c2)CCC(NC(=O)COc2cccc(Cl)c2)CC1 (centres unmarked)	63
COC(=O)CCCC(=O)NC1CCC(Cc2ccc(F)cc2)(N(C)C)CC1 (centres unmarked)	43
CC(=O)OC(C)(C)C(=O)NC1CCC(Cc2ccccc2)(N(C)C)CC1 (centres unmarked)	43
CC(=O)OC(C(=O)NC1CCC(Cc2ccc(C)cc2)(N(C)C)CC1)c1ccccc1 (centres unmarked)	49
Cc1cc(Cl)ccc1OCCCC(=O)NC1CCC(Cc2ccccc2)(N2CCCCC2)CC1 (centres unmarked)	45
CCC(Oc1ccccc1)C(=O)NC1CCC(Cc2ccccc2F)(N(C)C)CC1 (centres unmarked)	81
CN(C)C1(Cc2ccccc2Cl)CCC(NC(=O)C(C)(C)Oc2ccccc2Cl)CC1 (centres unmarked)	89
COCCOCC(=O)NC1CCC(Cc2ccccc2)(N(C)C)CC1 (centres unmarked)	47
CC(=O)OC(C)C(=O)NC1CCC(Cc2ccccc2)(N(C)C)CC1 (centres unmarked)	55
CN(C)C1(Cc2ccccc2F)CCC(NC(=O)COc2cccc(Cl)c2)CC1 (centres unmarked)	84
CN(C)C1(Cc2ccccc2F)CCC(NC(=O)COc2ccccc2)CC1 (centres unmarked)	75
CC(=O)OC(C(=O)NC1CCC(Cc2cccc(Cl)c2)(N(C)C)CC1)c1ccccc1 (centres unmarked)	56
CN(C)C1(Cc2ccc(F)cc2)CCC(NC(=O)c2ccccc2Oc2ccccc2)CC1 (centres unmarked)	79
O=C(CCc1ccccc1OC(=O)c1ccccc1)NC1CCC(c2ccccc2)(N2CCCCC2)CC1 (centres unmarked)	44
CC(=O)OC(C(=O)NC1CCC(Cc2ccccc2C)(N(C)C)CC1)c1ccccc1 (centres unmarked)	76
CC(=O)OC(C(=O)NC1CCC(Cc2cccc(F)c2)(N(C)C)CC1)c1ccccc1 (centres unmarked)	61
CN(C)C1(Cc2ccccc2)CCC(NC(=O)CSc2ccc(C(F)(F)F)cn2)CC1 (centres unmarked)	52
CC(=O)OC(C(=O)NC1CCC(Cc2ccccc2Cl)(N(C)C)CC1)c1ccccc1 (centres unmarked)	80
CN(C)C1(Cc2cccc(Cl)c2)CCC(NC(=O)c2ccccc2Nc2ccccc2)CC1 (centres unmarked)	64

Structure (SMILES)	μ-Opiate receptor [1 μM], % inhibition [%]
CCC(Oc1ccccc1)C(=O)NC1CCC(Cc2ccccc2C)(N(C)C)CC1 (centres unmarked)	69
CN(C)C1(CCc2ccccc2)CCC(NC(=O)COc2ccc(Cl)cc2)CC1 (centres unmarked)	49
CN(C)C1(c2ccccc2)CCC(NC(=O)C(C)(C)Oc2ccc(CCNC(=O)c3ccc(Cl)cc3)cc2)CC1 (centres unmarked)	104
Cc1ccccc1CC1(N(C)C)CCC(NC(=O)COCc2ccccc2)CC1 (centres unmarked)	82
CC(=O)OC(C(=O)NC1CCC(Cc2ccccc2)(N(C)C)CC1)c1ccccc1 (centres unmarked)	66
Cc1ccccc1CC1(N(C)C)CCC(NC(=O)COc2ccccc2)CC1 (centres unmarked)	85
COC(=O)CCCC(=O)NC1CCC(Cc2ccccc2)(N(C)C)CC1 (centres unmarked)	49
Cc1ccc(CC2(N(C)C)CCC(NC(=O)c3ccccc3COC(=O)c3ccccc3)CC2)cc1 (centres unmarked)	96
CN(C)C1(Cc2ccccc2Cl)CCC(NC(=O)C(C)(C)Oc2ccc(C(N)=O)cc2)CC1 (centres unmarked)	89
Cc1ccccc1CC1(N(C)C)CCC(NC(=O)C(C)(C)Oc2ccccc2Cl)CC1 (centres unmarked)	82
COc1ccc(Oc2ccc([N+](=O)[O-])cc2C(=O)NC2CCC(Cc3ccc(Cl)cc3)(N(C)C)CC2)cc1 (centres unmarked)	65
Cc1cccc(CC2(N(C)C)CCC(NC(=O)CCCOc3ccc(Cl)cc3C)CC2)c1 (centres unmarked)	57
COc1ccc(Oc2ccc([N+](=O)[O-])cc2C(=O)NC2CCC(Cc3cccc(F)c3)(N(C)C)CC2)cc1 (centres unmarked)	89
CN(C)C1(Cc2ccccc2)CCC(NC(=O)CCCOc2ccccc2)CC1 (centres unmarked)	65
Cc1ccc(CC2(N(C)C)CCC(NC(=O)CSCc3ccccc3)CC2)cc1 (centres unmarked)	77
COC(=O)CCCC(=O)NC1CCC(Cc2cccc(Cl)c2)(N(C)C)CC1 (centres unmarked)	44
CN(C)C1(Cc2ccc(Cl)cc2)CCC(NC(=O)CSCc2ccccc2)CC1 (centres unmarked)	69
CN(C)C1(Cc2ccc(F)cc2)CCC(NC(=O)C(C)(C)Oc2ccc(C(N)=O)cc2)CC1 (centres unmarked)	69
CC(=O)OC(C(=O)NC1CCC(Cc2ccccc2F)(N(C)C)CC1)c1ccccc1 (centres unmarked)	63
O=C(COc1ccc(Cl)cc1)NC1CCC(Cc2ccccc2)(N2CCCCC2)CC1 (centres unmarked)	50
